Measurements taken from patent US5668152A, “Protein kinase C inhibitors” (priority 1995, dated 1997).

Biological target: protein kinase C gamma (Homo sapiens, UniProt P05129)
Test: PKC Enzyme assay, gamma isozyme
Assay type: biochemical
Details: 30 μM ATP, 30° C., 10 minutes
Description: PKC enzymes=alpha, beta I, beta II, gamma, delta, epsilon, eta and zeta.
Assay components in a total volume of 250 μL are the following:
Vesicles consisting of 120 μg/mL phosphatidylserine (Avanti Polar Lipids) and sufficient diacylglycerol (Avanti Polar Lipids) to activate the enzyme to maximum activity in 20 mM HEPES buffer (Sigma, St. Louis, Mo.), pH 7.5, 940 μM calcium chloride (Sigma, St. Louis, Mo.) for assaying the alpha, beta I, beta II and gamma enzyme only, 1 mM EGTA for all the enzymes, 10 mM magnesium chloride (Sigma, St. Louis, Mo.) and 30 μM (gamma-32P) ATP (DuPont). For all the enzymes either histone type HL (Worthington) or myelin basic protein is used as substrate. The assay is started by addition of protein kinase C enzyme incubated at 30° C. for 10 minutes and stopped by adding 0.5 mL of cold trichloroacetic acid (Amresco) followed by 100 μL of 1 mg/mL bovine serum albumin (Sigma, St. Louis, Mo.). The precipitate is collected by vacuum filtration on glass fiber filters employing a TOMTEC™ filtration system and quantified by counting in a beta scintillation counter.

## Cn1cc(C2=C(c3cn(C4CCNCC4)c4ccccc34)C(=O)NC2=O)c2ccccc21 [Example 52]
  IC50: 2 µM
